# Reference: patent publication US11618753B2 (priority 2018, dated 2023)
# By UniProt entry, the sequences of proteins in these tests, tags left out. Where a name states a change or a piece, a line headed by the entry shows the natural chain unless it says otherwise.
# UniProt O00329: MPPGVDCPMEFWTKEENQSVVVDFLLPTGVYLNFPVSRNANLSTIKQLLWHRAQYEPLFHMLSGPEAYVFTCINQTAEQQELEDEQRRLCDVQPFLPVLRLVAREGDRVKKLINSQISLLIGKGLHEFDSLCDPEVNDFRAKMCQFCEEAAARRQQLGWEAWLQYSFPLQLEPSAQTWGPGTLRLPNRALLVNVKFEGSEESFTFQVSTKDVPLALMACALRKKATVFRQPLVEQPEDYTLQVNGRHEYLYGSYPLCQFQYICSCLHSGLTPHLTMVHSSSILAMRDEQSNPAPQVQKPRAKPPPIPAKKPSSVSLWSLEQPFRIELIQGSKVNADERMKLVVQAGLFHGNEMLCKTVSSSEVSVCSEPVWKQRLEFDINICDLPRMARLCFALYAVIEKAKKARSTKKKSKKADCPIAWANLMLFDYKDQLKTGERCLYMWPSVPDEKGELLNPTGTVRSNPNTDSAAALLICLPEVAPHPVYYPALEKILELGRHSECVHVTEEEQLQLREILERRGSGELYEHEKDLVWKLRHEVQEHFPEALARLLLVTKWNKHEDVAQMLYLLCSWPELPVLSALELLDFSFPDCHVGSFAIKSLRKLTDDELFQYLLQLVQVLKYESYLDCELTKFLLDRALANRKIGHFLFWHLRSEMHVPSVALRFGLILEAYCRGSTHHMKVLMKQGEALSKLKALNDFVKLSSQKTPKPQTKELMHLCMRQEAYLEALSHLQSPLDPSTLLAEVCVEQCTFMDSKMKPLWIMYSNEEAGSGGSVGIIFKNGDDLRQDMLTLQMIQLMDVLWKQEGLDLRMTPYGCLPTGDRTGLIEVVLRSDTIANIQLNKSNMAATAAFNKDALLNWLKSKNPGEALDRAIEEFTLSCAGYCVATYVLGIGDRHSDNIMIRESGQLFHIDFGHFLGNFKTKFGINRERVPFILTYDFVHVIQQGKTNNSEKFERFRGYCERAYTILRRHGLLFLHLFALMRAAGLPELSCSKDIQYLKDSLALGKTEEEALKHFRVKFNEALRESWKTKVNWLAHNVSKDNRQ
# Biological target: GST-tagged PIK3Cδ in complex with PIK3R1 (Homo sapiens (Human), UniProt O00329)
# Details: read-out: PIK3Cδ IC50
row,Substance,IC50 [nM]
1,"5-[4-amino-5-(trifluoromethyl)pyrrolo[2,1-f][1,2,4]triazin-7-yl]-N-[(3R,4S)-1-(4,4-difluorocyclohexanecarbonyl)-4-fluoropyrrolidin-3-yl]-2-methylbenzamide [Example 990]",63
2,"5-{4-amino-5-[(4,4-difluoropiperidin-1-yl)methyl]pyrrolo[2,1-f][1,2,4]triazin-7-yl}-N-[3R,4S)-1-(3,5-difluoropyridine-2-carbonyl)-4-fluoropyrrolidin-3-yl]-2-methoxypyridine-3-carboxamide [Example 1263]",> 15000
